# According to PubChem BioAssay (NCI):
# Only a part is listed here, and it is no random draw. Some salts and complexes are drawn in separate pieces, as the source files them; their charges need not balance. The source made the active and inactive calls. Rule as the data show it: active = growth inhibition above about 70%; inactive = the rest.
# Columns and labels:
# [1] = NCI Yeast Anticancer Drug Screen. Data for the rad50 strain (AID 155);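 also: 0% = growth of vehicle-only cultures of the same strain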; conditions: S. cerevisiae rad50 strain growth inhibition; at 50.0 µM; stronger effect = higher value
# [2] = NCI Yeast Anticancer Drug Screen. Data for the mec2-1 strain (AID 157); conditions: S. cerevisiae mec2-1 strain, at 50.0 µM, stronger effect = higher value
# [3] = NCI Yeast Anticancer Drug Screen. Data for the sgs1 mgt1 strain (AID 161);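 also: 0% = growth of cultures given vehicle only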; conditions: S. cerevisiae sgs1 mgt1 strain, at 50.0 µM, stronger effect = higher value
# [4] = NCI Yeast Anticancer Drug Screen. Data for the cln2 rad14 strain (AID 165);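 also: 0% = growth equal to vehicle treated cultures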; conditions: S. cerevisiae cln2 rad14 strain, at 50.0 µM, stronger effect = higher value
# [5] = NCI Yeast Anticancer Drug Screen. Data for the bub3 strain (AID 167); conditions: S. cerevisiae bub3 mutant strain, at 50.0 µM, stronger effect = higher value
# [6] = NCI Yeast Anticancer Drug Screen. Data for the mlh1 rad18 strain (AID 175); conditions: S. cerevisiae mlh1 rad18 strain growth inhibition; at 50.0 µM; stronger effect = higher value
SMILES,growth inhibition [1],growth inhibition [2],growth inhibition [3],growth inhibition [4],growth inhibition [5],growth inhibition [6]
Cc1cc2c(cn1)CNC2=O.O=[N+]([O-])c1cc([N+](=O)[O-])c(O)c([N+](=O)[O-])c1,inactive: 38.5%,inactive: -1.35%,inactive: 22.7%,inactive: -24.9%,inactive: -0.65%,inactive: 21.1%
C[N+](C)(C)C.n1n[n-]c(-c2nnn[n-]2)n1,inactive: -2.6%,inactive: -4.55%,inactive: -13.9%,inactive: 6.3%,inactive: 14.5%,inactive: -1.4%
CC(O)CNC1CCCCC1.O=[N+]([O-])c1cc([N+](=O)[O-])c(O)c([N+](=O)[O-])c1,inactive: 44.9%,inactive: 4.6%,inactive: 29.6%,inactive: -37.6%,inactive: 2.5%,inactive: 28.3%
CC(C)N([PH2+]Br)C(C)C.[C-]#[O+].[C-]#[O+].[C-]#[O+].[C-]#[O+].[Fe] (stereo not given),inactive: -4.95%,inactive: -1%,inactive: -21.9%,inactive: -22.2%,inactive: -0.65%,inactive: -23.8%
Cc1ccc2ccc3ccc(C)cc3c2c1.O=C1c2cc([N+](=O)[O-])ccc2-c2c1cc([N+](=O)[O-])cc2[N+](=O)[O-],inactive: 10.5%,inactive: 10%,inactive: 7.15%,inactive: -17.1%,inactive: -4.4%,inactive: 36.6%
[C-]#N.[C-]#[O+].[C-]#[O+].[C-]#[O+].[C-]#[O+].[C-]#[O+].[Cr],inactive: -0.65%,inactive: 11.7%,inactive: 2.7%,inactive: -87.1%,inactive: -33.4%,inactive: -9.3%
C[n+]1ccc(/C=C/c2ccccc2)cc1.O=[N+]([O-])c1cc([N+](=O)[O-])c([O-])c([N+](=O)[O-])c1,inactive: 9.25%,inactive: -1.45%,inactive: -21.6%,inactive: -35.7%,inactive: 17.2%,inactive: -3.5%
C[N+]1(CCC[N+]2(C)CCCCCC2)CCCCCC1.O=[N+]([O-])c1cc([N+](=O)[O-])c(O)c([N+](=O)[O-])c1,inactive: -11.4%,inactive: -13.3%,inactive: -17.6%,inactive: -25.1%,inactive: -8.05%,inactive: -2.4%
C[N+](C)([O-])C1CCCCCCCC1.O=[N+]([O-])c1cc([N+](=O)[O-])c(O)c([N+](=O)[O-])c1,inactive: 37.1%,inactive: 12.1%,inactive: 31.9%,inactive: 18.1%,inactive: -3.6%,inactive: 11.3%
CCCCOP(=O)(Cl)OCCCC,inactive: -1.65%,inactive: -34.6%,inactive: 7.5%,inactive: 13.4%,inactive: 1.55%,inactive: 15.2%
O=P(Cl)(N1CCCC1)N1CCCC1,inactive: 8.8%,inactive: -12.7%,inactive: -4.35%,inactive: -33.4%,inactive: -1.35%,inactive: -4.05%
CCC(CC)NC(C)CO.O=[N+]([O-])c1cc([N+](=O)[O-])c(O)c([N+](=O)[O-])c1,inactive: 14.7%,inactive: -12%,inactive: -4.65%,inactive: -37%,inactive: -10.9%,inactive: 8.75%
CN([PH+](F)F)[PH+](F)F.CN([PH+](F)F)[PH+](F)F.CN([PH+](F)F)[PH+](F)F.CO[PH+](OC)OC.CO[PH+](OC)OC.[Ni].[Ni],inactive: 4.7%,inactive: -9.9%,inactive: -7.9%,inactive: 0.75%,inactive: 16.1%,inactive: 3.2%
CN(C)c1ccccc1.O=[N+]([O-])c1cc([N+](=O)[O-])c(O)c([N+](=O)[O-])c1,inactive: 15%,inactive: 3%,inactive: 23.2%,inactive: 3.35%,inactive: 7.5%,inactive: 29.6%
CC1=CC2OC3CC4OC(=O)/C=C/C=C/C(=O)OCCC(C)C(O)C(=O)OCC2(CC1=O)C4(C)C31CO1 (stereo not given),active: 92.5%,active: 93.3%,active: 93.2%,active: 91.2%,active: 92%,active: 92.3%
CCCCN(CCCC)CCCC#N.O=[N+]([O-])c1cc([N+](=O)[O-])c(O)c([N+](=O)[O-])c1,inactive: 29.2%,inactive: 13.6%,inactive: 18.7%,inactive: 9.35%,inactive: 0%,inactive: 18.8%
CC(CC(C#N)(c1ccccc1)c1ccccc1)N(C)C.O=[N+]([O-])c1cc([N+](=O)[O-])c(O)c([N+](=O)[O-])c1 (stereo not given),inactive: 23.1%,inactive: 8.75%,inactive: 20.2%,inactive: 3.95%,inactive: -3.5%,inactive: 15.8%
Nc1c([N+](=O)[O-])cc([N+](=O)[O-])c(N)c1[N+](=O)[O-],inactive: 18.7%,inactive: 20.9%,inactive: 18.2%,inactive: -15.4%,inactive: 2.4%,inactive: 17.6%

SMILES,growth inhibition [1],growth inhibition [2],growth inhibition [3],growth inhibition [4],growth inhibition [5],growth inhibition [6]
C1CN1.[Cl][Pt][Cl],inactive: -8.8%,inactive: 3.05%,inactive: -7.3%,inactive: 7.15%,inactive: 22.9%,inactive: 6.65%
CCN(CC)CCOC(=O)C(O)(c1cc(C)c(C)c(C)c1)C1CCCCC1 (stereo not given),inactive: 35.5%,inactive: -2.15%,inactive: 20.6%,inactive: -57%,inactive: 2.3%,inactive: 15%
CC1CNCCN1.O=[N+]([O-])c1cc([N+](=O)[O-])c(O)c([N+](=O)[O-])c1,inactive: 17.4%,inactive: -10.6%,inactive: 0.35%,inactive: -39.1%,inactive: -8.25%,inactive: 5.8%
Cc1ccc2ccc3ccc(C)c(C)c3c2c1C.O=[N+]([O-])c1cc([N+](=O)[O-])cc([N+](=O)[O-])c1,active: 98.3%,active: 98.6%,active: 99.2%,active: 96.3%,active: 98.5%,active: 98.5%
Cc1ccc([N+](=O)[O-])cc1[N+](=O)[O-],inactive: 0.6%,inactive: 17.1%,inactive: 13.2%,inactive: -26.2%,inactive: -5.15%,inactive: -0.85%
COc1cnc2ccccc2n1.O=[N+]([O-])c1cc([N+](=O)[O-])c(O)c([N+](=O)[O-])c1,inactive: 50.4%,inactive: 9.1%,inactive: 36.6%,inactive: -3.45%,inactive: 2.6%,inactive: 10%
CN(CCCl)C1CCCC1,inactive: 8.75%,inactive: 0.9%,inactive: 4.95%,inactive: -12.9%,inactive: -0.6%,inactive: 11.7%
N=C(N)N(N)[N+](=O)[O-],inactive: 28.8%,inactive: 7.3%,inactive: 23.9%,inactive: 30.4%,inactive: -14.3%,inactive: 4.9%
CN(CN(CN(CCl)[N+](=O)[O-])[N+](=O)[O-])[N+](=O)[O-],inactive: 14.2%,inactive: -4.15%,inactive: 7.85%,inactive: 6.75%,inactive: 10.1%,inactive: 20.4%
CC(=O)C1CCCCN1C.O=[N+]([O-])c1cc([N+](=O)[O-])c(O)c([N+](=O)[O-])c1,inactive: -1.05%,inactive: 0.1%,inactive: 23.5%,inactive: -6.45%,inactive: -1.55%,inactive: 2.6%
CCCCC(CCCC)NC(C)CO.O=[N+]([O-])c1cc([N+](=O)[O-])c(O)c([N+](=O)[O-])c1,inactive: 26.6%,inactive: 1.65%,inactive: 12.4%,inactive: -27.4%,inactive: 8.15%,inactive: 19.4%
Cc1ccccn1.O=[N+]([O-])c1cc([N+](=O)[O-])c(O)c([N+](=O)[O-])c1,inactive: -0.9%,inactive: 36.2%,inactive: 5.55%,inactive: -8.65%,inactive: 8.6%,inactive: -6.7%
NC1CC2CC1C1CCCC21.O=[N+]([O-])c1cc([N+](=O)[O-])c(O)c([N+](=O)[O-])c1,inactive: 34.5%,inactive: 6.8%,inactive: 32.7%,inactive: 15.9%,inactive: 8.1%,inactive: 12.8%
Cc1cccc2c1ccc1ccc3ccccc3c12.O=C1c2cc([N+](=O)[O-])ccc2-c2c1cc([N+](=O)[O-])cc2[N+](=O)[O-],inactive: 4.3%,inactive: -9.8%,inactive: 2.35%,inactive: -8.65%,inactive: 0.25%,inactive: 31.7%
NC(=O)NC(=O)N[N+](=O)[O-],inactive: -2.7%,inactive: -0.7%,inactive: -5.85%,inactive: 18.6%,inactive: 2.05%,inactive: 3.25%
CCCOP(=S)(Cl)OCCC,inactive: 10.2%,inactive: 10.3%,inactive: 2.65%,inactive: 10.5%,inactive: -8.55%,inactive: 12.7%
COc1nccc2ccccc12.O=[N+]([O-])c1cc([N+](=O)[O-])c(O)c([N+](=O)[O-])c1,inactive: 61.3%,inactive: 21.4%,inactive: 45.5%,inactive: 10.8%,inactive: 7.4%,inactive: 38.3%
